# Apparent affinities of Ab-14 variants for a coronavirus HR2 peptide

Values reported by Li et al. 2023, doi:10.1038/s41467-023-39022-2 (FLAb copy).

The target is the same throughout: PDVDLGDISGINAS, from the HR2 region of SARS-CoV-2 spike.

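Phage display of a naive human antibody library on the peptide gave the parent. Designed CDR sequences, proposed from the first random library and measured here. Several design methods are mixed in this list. The assay is AlphaSeq: two haploid yeast populations carry antibody and antigen on their surface. Pairs that bind mate more often; barcode pairs of the diploids are counted by sequencing. The ratio of observed to expected reads was calibrated, replicate by replicate, on BCL2-family standards whose Kd was known from biolayer interferometry. Each pool was mated in six replicate cultures.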

Ab-14 is the parent antibody, in scFv form: VH, then a 15-residue (Gly4Ser)3 linker, then VL. The heavy chain is unchanged in all variants.
VH: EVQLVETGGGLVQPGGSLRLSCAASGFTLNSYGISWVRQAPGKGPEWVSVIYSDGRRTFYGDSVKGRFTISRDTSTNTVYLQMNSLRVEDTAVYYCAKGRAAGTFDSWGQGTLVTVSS
VL: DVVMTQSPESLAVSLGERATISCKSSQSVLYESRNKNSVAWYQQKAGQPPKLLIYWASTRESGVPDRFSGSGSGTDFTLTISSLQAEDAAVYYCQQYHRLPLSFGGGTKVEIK

The parent's light chain CDRs are KSSQSVLYESRNKNSVA, WASTRES, QQYHRLPLS; each variant's own CDRs replace them letter for letter. The read-out is the apparent dissociation constant on a log10 scale (nM): the lower, the stronger. A mean of the replicates is given; it leaves out those without a signal. "nd" means that the variant was in the library but no mating with the target was seen in any replicate; the authors take this as a sign of poor binding, and no number exists. Values of this round are not directly comparable with the first-round values of the same sequences.

CDR-L1,CDR-L2,CDR-L3,mean log10 Kd (nM),detected
KVSESWLYESRNKNSVA,NASTRES,QQYHRLPLS,-0.02,6/6
KSSQSVLYIDRNKNSVA,QASTRES,QQYHRLPLS,1.70,6/6
TLSDVMYMESRNVNSVA,DLVKRES,QQYHRLPLS,0.17,6/6
KVSQKDPMGSRNKNSVA,EASVRED,QQYHRLPLS,-0.14,6/6
MISQVLNTLYATGNNVA,DLQERED,QQYFRLPLS,1.97,2/6
KLTMMYQHTSKNTNNIA,ERSTREE,QQYHHLPLS,0.28,6/6
MISQLYNMGQFAINSVA,QASNRNE,QQYDRLPLI,1.91,6/6
ILNDTPMEQQIHMDAIA,QEAIRNA,QQYARLPLS,0.87,6/6
KVSQSGLYESRNKNSVA,NASTRES,QDYHRLPLS,0.03,6/6
KLLDQADGWTRNERNIA,DADHRGA,QQYSHLPLC,-0.01,6/6
TLSGHQYNYSQKKNSIA,EDNNIRL,QQYHRLPFM,nd,0/6
KLSMQYRFETEEKNSIA,ELVTRMS,QQYHRLPLS,1.79,5/6
KSGQGVLYESRNKNSVA,GASQRLS,QQYHRLPLS,0.04,6/6
KSLQSGLYESRNKNSVA,HASTREQ,QQYHRLPLS,0.89,5/6
TISQMTSLFSQTINNVA,EVSTREE,QQYDRLPLM,0.43,6/6
KLDLYNGEMDKWGDNIA,EASTAGM,QHYWRLPLS,1.91,1/6
KITTSLYRWGSDKGAVA,EENIRVR,QQYFRLPFS,nd,0/6
KLSVSYGILEVERNSVA,QNSTREE,QQYDRLPLS,1.73,1/6
SLHMMPPVGYAYDENVA,NASQLFS,QQYFRLPLT,2.35,4/6
HWSWSVDDESRNDNSVA,DASTRED,QQYHRLPLS,0.32,6/6
KSSQSVTYESRNKNSVA,WASTRES,QQYHRLSLD,nd,0/6
KSSISYLYESRNKNSVA,AASTREQ,QQYHRLPLS,0.01,6/6
KLSQSVLYESRNKNSVA,HASTRYS,QQYHRLPLS,0.27,6/6
HVPNYPENFTSAKQNIA,DQSATTS,QQYDRLPLA,nd,0/6
KLSQSMEYESRNKNSVA,HASTREH,QQYHRLPLM,0.17,6/6
KLVQFMNRGTHHTSNIA,DAALRED,QQYARLPLA,0.47,6/6
KLSQSWLYESRNKNSVA,NASQRES,QDYHRLPLS,-0.26,6/6
KLSQSELYESRNKNSVA,DASTRCS,QQYHRLPLS,-0.27,6/6
KVSQSVLYESRNKNSVA,EASTRES,QQYHRLPLW,-0.04,6/6
KMNMAVQQDLMDEYSVA,DHMTAVT,QQYGRLPLS,2.72,4/6
KSLQSVLYESRNKNSVA,HASTRED,QQYHQLPLS,0.23,6/6
KISGYLNKESKEKNSVA,EMVNRES,QQYDRLPLS,1.01,6/6
MMSQVWGMGQRHRNNVA,QTSTREE,QQYDHLPLI,1.05,6/6
AEDHMEGSGKNSDANVA,QAEQRAP,QQYHHLPLM,0.52,6/6
KLVQFMNRGTHHTSNIA,DAQDRID,QQYARLPLA,1.24,6/6
KVSQSELYESGTKNSVA,NASSRES,QQYHRLPLS,0.05,6/6
ILDQSQLYESRNKNSVA,NASTREQ,QQYHRLPLS,-0.21,6/6
TLVQSVMSGSRTKNSVA,NAEMRYD,QHYHRLPLS,0.46,6/6
KLRQSVLYESRNQNSVA,NASTRES,QQYHRLPLS,-0.41,6/6
KSGQGVLYESRNKNSVA,GASTRES,QQYHRLPLQ,0.55,6/6
MISDLTMYGSRNKSSVA,DLSTRGS,QQYHRLPLS,0.61,3/6
KLGQMTGIESHNKNSLA,DANRRED,QQYHRLPLS,-0.16,6/6
KLHQSVLYESRNKNSVA,EASTRES,QQYHRLPLS,-0.12,6/6
KVSQSMLYESRNKNSVA,DASTRES,QSYHRLPLS,-0.25,6/6
KSSHSGLYETRNKNSVA,WASTREV,QAYHRLPLS,nd,0/6
KSSISYLYESENKWSVA,EASQRES,QQYHRLPLS,1.54,2/6
KLSQSEDYESRNKNSVA,NASTRMS,QQYHRLPLS,-0.03,6/6
KSSQSVLYESLNKNSVA,WASTRES,EQYHGLPWS,nd,0/6
KLEQSVLYESRNKNSVA,EASQRES,QQYHRLPLS,0.14,6/6
HLAVNMELLDSSKYHVA,NASDREP,QHYNRLPLI,2.06,3/6
KLGQSAAMTSRNKNNVA,DLNERER,QQYHRLPLS,-0.31,6/6
KTGQGVLYESRNKNSVA,GASYRES,QQYHRLPLS,-0.04,6/6
KSQQSFLYESRNVNSVA,GASTRES,QQYHRLPLS,-0.19,6/6
TISQSWFIESRNKNNVA,EMTCREN,QDYDRLPLS,1.33,2/6
KCLQSVLYESRDKNSVA,HASTRED,QQYHRLPLS,0.21,6/6
QLSGPMVSESKNKNSVA,EFSTRGS,QQYHRLPLS,0.87,6/6
KLTSVTGQEKVRGNNVA,EMETREN,QQYDRLPLS,0.95,6/6
LISGVTDYGSRNYNSVA,QTSTRES,QQYDRLPLE,1.38,6/6
TFSQSWLYESRNKNSVA,GASTRES,QQYHRLPLS,-0.35,6/6
SLAESVHMESRNKNNVA,DNSTRES,QHYHRLPLS,nd,0/6
KSSQSVLGEQRNKNSVA,DASTRES,QQYHRLCLS,1.85,6/6
ILSQSVLYESRNKNSVA,NASQRES,QQYHRLPLS,-0.46,6/6
KFSQSVLYESRNPNSVA,WASTRES,QQYHRLPLS,0.43,6/6
KVSQSQLYESRMKNSVA,NASQRES,QQYHRLPLS,0.15,6/6
HMSMITLGGMRHRNSVA,QMTTREN,QQYDHLPLS,0.85,6/6
KVPQSWWYESRMKQSVA,NASERES,QQYHRLPLS,0.02,6/6
KVSQSNLYESRNKNSVA,NASTRES,QQYHRLPLM,0.07,6/6
KSSQSWLYESRNKNSVA,GASMRES,QQYHRLPLS,0.48,6/6
KVDMYELPMEFNRSHVA,QAEVRAP,QQYWRLPLE,0.44,6/6
KQSESVLYESRNKNSVA,MASTRES,QQYHRLPLS,0.49,6/6
KSSVSVLQESRNKNSVA,WASTRES,QQYHRLPLS,1.52,6/6
KIELDLTRYNAGGANIA,HETMKAQ,QQYSRLPLI,0.46,6/6
KLDQSWLYESRNKNSVA,SASQRES,QQYHRLPLS,-0.11,6/6
KSSQSVADESRNKNSIA,WANERES,QQYHHLPLS,1.15,6/6
TISMSMNWLTFNKDNIA,EESTREN,QQYDRLPLS,2.77,4/6

Excerpt, the final 9 entries:

CDR-L1	CDR-L2	CDR-L3	mean log10 Kd (nM)	detected
KVSQSNLYESRNKNSVA	NASTRES	QQYHRLPLM	0.07	6/6
KSSQSWLYESRNKNSVA	GASMRES	QQYHRLPLS	0.48	6/6
KVDMYELPMEFNRSHVA	QAEVRAP	QQYWRLPLE	0.44	6/6
KQSESVLYESRNKNSVA	MASTRES	QQYHRLPLS	0.49	6/6
KSSVSVLQESRNKNSVA	WASTRES	QQYHRLPLS	1.52	6/6
KIELDLTRYNAGGANIA	HETMKAQ	QQYSRLPLI	0.46	6/6
KLDQSWLYESRNKNSVA	SASQRES	QQYHRLPLS	-0.11	6/6
KSSQSVADESRNKNSIA	WANERES	QQYHHLPLS	1.15	6/6
TISMSMNWLTFNKDNIA	EESTREN	QQYDRLPLS	2.77	4/6

The parent sequence was in this pool as ten entries: three were never detected, three once, and four in most replicates, with averages from 0.34 to 2.37. In the paper, a design with two or fewer of six values counts as a poor binder. Nonspecific signal, from three strains lacking the peptide, appeared in 4% of pairings of all light chain designs, centred on 2.64 (5% of these signals below 1.59); values are not corrected for it.